# From PubChem
# Shown are actives, neighbours in structure and some others; about 2.3% of the full set was active somewhere.
# Yeast UUG start-1 = yeast start codon fidelity modulation. S. cerevisiae UUG-firefly luciferase reporter, luminescence/redox ratio. activity score, % at 18.7 µM. 0.13% of 350,000 active;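 active = replicate mean at a twofold rise or more, about +100% in these data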;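 also: firefly luciferase made from a UUG start codon reports start codon fidelity; reporter light over untreated wells divided by growth signal over untreated wells; some hits fall short of that in this replicate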
# ASAP1 inh = blocks human ASAP1-stimulated Arf1 GTP hydrolysis; Q9ULH1; GDP FP detection; inhibition, % at 16.5 µM; 0.19% of 360,000 active; in the data active means inhibition above about 25%;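 further: 0% = vehicle with enzyme and substrate and 100% = no enzyme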
# CendR NRP1 mod = NRP-1/CendR interaction modulation; O14786; FAM-RPARPAR peptide binding to NRP-1, fluorescence polarization; inhibition, % at 25 µM; 0.85% of 360,000 active;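 active means inhibition or corrected inhibition above about 18%, plus a signal ratio from 0.5 to 1.5, limit read from the data, passing the limit was not always enough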
# ARFGAP1 inhibitor = rat ARFGAP1 inhibition; Arfgap1-stimulated ARF1 GTP hydrolysis, GDP FP detection; 0.26% of 360,000 active; inhibition, % at 16.5 µM; Q62848;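 active means inhibition above a per-plate limit, mean inhibition of low control wells plus 3 SD, cut at about 25% in these data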;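 further: 0% = DMSO wells with enzyme and 100% = wells lacking Arfgap1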
#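 Assay system: purified rat His6-Arfgap1 residues 1-136 (GAP domain); Reagent: human Δ17 ARF1 bound to GTP; Dosing: 16.5 µM single point, 1.26% DMSO; Times: GTP hydrolysis reaction 2 h at 25 °C; Signal: FP, GDP Alexa 633 tracer displaced from anti-GDP antibody, 620/688 nm; Measure: % inhibition from polarization.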
# MC4R ag barr = human MC4R agonism via beta-arrestin; P32245; U2OS MC4R beta-arrestin complementation, luminescence; percent of melanotan II response, DMSO zero; activation, % at 8.9 µM; 0.98% of 360,000 active; AID 540308;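 active means activation above a per-plate cutoff, the mean activation of sample wells on that plate plus 3 SD, cut at about 8% in these data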
# MC4R antagonist = human MC4R antagonism in cAMP assay. P32245. MC4R-expressing cells, MTII-stimulated cAMP, LANCE TR-FRET. inhibition, % at 6.5 µM. 0.48% of 360,000 active. AID 540295;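 active means inhibition above its plate's cutoff, the mean of tested wells on that plate plus 3 SD, cut at about 29% in these data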;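 further: 0% = Melanotan II alone and 100% = Melanotan II plus saturating MCL0020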
#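 system = U2OS cells with stable human MC4R expression | also added = Melanotan II challenge after compound preincubation | dosing = one concentration, 6.5 µM nominal | incubation = compound 30 min, challenge 1 h, detection 1 h | measured by = TR-FRET with Eu-cAMP and labeled anti-cAMP, 671 nm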
# Yeast UUG start-2 = alters UUG start codon use in yeast; AID 652061; activation, % at 38 µM; S. cerevisiae UUG-start firefly luciferase, luminescence, 4 h; 100% means double the DMSO signal; shares compounds with Yeast UUG start-1; 540 tested, under 10 active;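 active means signal increase whose fitted curve reaches an absolute level of 40 at a concentration under 10 µM; inactive means activity opposite to the expected increase, or the rest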
# ASAP1 GAP conf = confirmation of human ASAP1 inhibitors. shares compounds with ASAP1 inh. ASAP1-stimulated Arf1 GTPase, GDP fluorescence polarization. inhibition, % at 16.5 µM. 37% of 620 active;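 active means mean inhibition over triplicates exceeds the hit threshold derived for the earlier primary screening run, cut at about 25% in these data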
# Active calls of the source: *; i = inactive; . = no result.
SMILES,Yeast UUG start-1,ASAP1 inh,CendR NRP1 mod,ARFGAP1 inhibitor,MC4R ag barr,MC4R antagonist,ASAP1 GAP conf,others
CC(C)C[C@@H](CNCC(=O)[C@H](CC(=O)O)NC(=O)c1[nH]cnc1C(=O)N[C@H](CN)CC(C)C)NC(=O)c1nc[nH]c1C(=O)N[C@@H](C)C(=O)O,138*,-5,-4,-3,-3,-2,.,Yeast UUG start-2=1
CC(C)C[C@@H](CN)NC(=O)c1nc[nH]c1C(=O)N[C@@H](C)C(=O)CNC[C@H](CC(C)C)NC(=O)c1nc[nH]c1C(=O)N[C@@H](CC(=O)O)C(=O)O,6,-14,8,8,-1,16,.,
CN1c2ccc(C#Cc3cccnc3)cc2[C@@H]2[C@@H](CCN2C(=O)C2CCCCC2)[C@H]1CO,5,.,.,.,.,.,.,
C[C@@H]1CN([C@H](C)CO)C(=O)c2cc(-c3ccccc3F)cnc2O[C@H]1CN(C)C,-8,.,.,.,.,.,.,
Fc1ccc(NC(=S)NCc2cccs2)cc1,253*,5,2,9,2,-1,.,Yeast UUG start-2=-6
C[C@@H]1CCCCO[C@H](CN(C)S(=O)(=O)c2ccc(Cl)cc2)[C@@H](C)CN([C@H](C)CO)C(=O)c2cc(NC(=O)Cc3ccccc3)ccc2O1,-6,.,.,.,.,.,.,
C/C=C/c1ccc2c(c1)O[C@H](CN(C)Cc1ccccn1)[C@@H](C)CN([C@H](C)CO)S2(=O)=O,-1,.,.,.,.,.,.,
C[C@@H]1CN([C@@H](C)CO)C(=O)Cc2cc(NC(=O)C3CCCCC3)ccc2O[C@H]1CN(C)C(=O)NC1CCCCC1,47*,.,.,.,.,.,.,Yeast UUG start-2=i
COc1ccc(S(=O)(=O)N2CCCC2)c(Cl)c1Cl,.,25*,3,5,2,-17,0,
O=C(NCC[C@@H]1CC[C@H](NS(=O)(=O)c2ccccc2F)[C@H](CO)O1)c1ccc(F)cc1,6,.,.,.,.,.,.,
O=C(Cn1c2ccccc2c(=O)c2ccccc21)N/N=C/c1ccc(N2CCCC2)c([N+](=O)[O-])c1,-12,-2,17,6,-1,-3,.,
O=C(Cn1c2ccccc2c(=O)c2ccccc21)N/N=C/c1cc([N+](=O)[O-])ccc1N1CCCCCC1,-16,37*,-44,20,-1,-2,40*,
C[C@@H]1CCCCO[C@H](CN(C)C(=O)Nc2ccccc2)[C@H](C)CN([C@@H](C)CO)C(=O)c2cc(NC(=O)Nc3ccc(F)cc3)ccc2O1,-16,.,.,.,.,.,.,
CCCNC(=O)C1(C)CCCN(Cc2ccc(-n3ccnc3)cc2)C1 (stereo unspecified),8,3,6,2,-1,-4,.,
CCCNC(=O)C1(C)CCN(Cc2ccc(-n3ccnc3)cc2)C1 (stereo unspecified),-13,26*,-15,3,3,1,2,
Cc1noc(C)c1NC(=O)Nc1ccc2c(c1)C(=O)N([C@H](C)CO)C[C@H](C)[C@@H](CN(C)C(=O)Nc1ccc(F)cc1)O2,-8,.,.,.,.,.,.,
Cc1noc(C)c1S(=O)(=O)N(C)C[C@H]1Oc2ccc(NS(=O)(=O)c3ccc(Cl)cc3)cc2CC(=O)N([C@@H](C)CO)C[C@@H]1C,13,.,.,.,.,.,.,
COc1ccc(NC(=O)N(C)C[C@H]2Oc3ccc(NC(=O)CCCN(C)C)cc3C(=O)N([C@H](C)CO)C[C@H]2C)cc1,7,.,.,.,.,.,.,
O=C(Nc1ccc(Br)cc1)c1cc(-c2ccncc2)nc2ccccc12,-17,29*,-12,17,0,6,16,
COC(=O)c1ccc(NC(=O)c2cc(-c3ccncc3)nc3ccccc23)cc1,2,0,-13,1,0,7,.,
CCN1C=C(Cc2cccs2)C2=C(C1)C(c1cccs1)C(C#N)=C(N)O2 (stereo unspecified),-10,25*,-42,-4,-2,-9,7,
O=C(Nc1c(-c2ccc3c(c2)OCO3)[nH][nH]c1=O)c1ccccc1,-18,30*,19,15,.,.,11,
O=C(Nc1c(-c2ccccc2)[nH][nH]c1=O)c1ccc2c(c1)OCO2,.,-5,-12,0,.,.,.,

# 3 entries from above, ordered by length of the SMILES, smallest number first.
SMILES,Yeast UUG start-1,ASAP1 inh,CendR NRP1 mod,ARFGAP1 inhibitor,MC4R ag barr,MC4R antagonist,ASAP1 GAP conf,others
CN1c2ccc(C#Cc3cccnc3)cc2[C@@H]2[C@@H](CCN2C(=O)C2CCCCC2)[C@H]1CO,5,.,.,.,.,.,.,
O=C(NCC[C@@H]1CC[C@H](NS(=O)(=O)c2ccccc2F)[C@H](CO)O1)c1ccc(F)cc1,6,.,.,.,.,.,.,
O=C(Cn1c2ccccc2c(=O)c2ccccc21)N/N=C/c1cc([N+](=O)[O-])ccc1N1CCCCCC1,-16,37*,-44,20,-1,-2,40*,
